“Also recorded” adds a separate entry of the source.
Tested on: Coagulase-negative Staphylococcus (CoNS) and S. agalactiae
Conditions: CoNS and S. agalactiae together v. expected from each species alone (HSAP/UP)

SMILES: CO/N=C(\C(=O)N[C@@H]1C(=O)N2C(C(=O)O)=C(CSc3nc(=O)c(=O)[nH]n3C)CS[C@H]12)c1csc(N)n1 [Ceftriaxone, ceftriaxone]
- change in antibiotic resistance of the pair of organisms: decrease in resistance; also recorded: decreased odds of resistance

SMILES: O=C(O)c1cn(C2CC2)c2cc(N3CCNCC3)c(F)cc2c1=O [Ciprofloxacin, ciprofloxacin]
- change in antibiotic resistance of the pair of organisms: decrease in resistance; also recorded: decreased odds of resistance

From patent US20210301315A1, “METHODS FOR TREATING POLYMICROBIAL INFECTIONS” (priority 2017, published 2021)
